{"source": "patent US12226449B2", "about": "“Materials and methods for the prevention of rheumatoid arthritis” (The University of Toledo, priority 2018, dated 2025)", "tested_on": "human PBMCs", "test": "ELISPOT assay of IFN-γ and IL-17 secreting cells", "assay_type": "cell-based", "settings": "14-3-3ζ cultures supplemented with IL-2", "method": "Cells were plated with 14-3-3ζ protein in a 96-well plate for 14 days at 37° C. in complete RPMI culture medium. Phytohemagglutinin (PHA) was used as a positive control. 10 μl MTT was added at a concentration of 5 mg/mL, and the plate was further incubated at 37° C. in the dark for 3 hours. Supernatant was then removed, and 100 μL DMSO was added for another hour before reading the absorbance at 570 nm using FLUOstar Omega microplate reader (BMG Labtech). For T cell differentiation, PBMCs were incubated with 1 μg/ml of 14-3-3ζ for 7 days followed by either the cellular staining for FACS analysis or ELISPOT as per manufacture's protocol. For testing the effect of drugs, prednisolone, prednisone, as well as TJU103, were used at 1 μg/ml concentration and cyclophosphamide was used at 0.1 μg/ml concentration.\nThe protocol was adopted from Immunospot kit from Cellular Technology Limited. In short, PBMCs incubated with 14-3-3ζ for 7 days were plated on the antibody coated ELISPOT plates. About 100,000 cells/well were added and incubated for 2 days at 37° C. followed by the developing protocol. Plates were read with a Quantihub ELISPOT plate reader and manually counted.", "data": [{"substance": "IL-2: cytokine added to promote clonal expansion of T cells", "values": [{"measurement": "further increase in number of cells or cytokine positive cells on supplementation of 14-3-3ζ cultures", "value": "no further increase"}]}]}
